Experimental data published in patent publication US20090092553A1, “MONOCARBOXYLATE TRANSPORTERS EXPRESSED IN CANCER CELLS” (Xenoport,Inc., priority 2003, published 2009).

Test system: PC3 human prostate cancer epithelial cell line
Assay: Alamar blue cytotoxicity assay, PC3 cells
Conditions: PC3, 48 hour treatment

Q: How did the GI50 turn out when `O=C(O)CON(CCCl)CCCl` was run?
A: 15 µM

Only a part of the results on these compounds is given; other tests are left out.
